Here are results for one compound from patent US6340581B1, “Biological production of products from waste gases” (Bioengineering Resources, Inc., priority 1992, dated 2002).

A short description of the series: Acetic acid distribution coefficient study: solvents for recovering acetic acid from the permeate. The series is classed as physicochemical.

For `CCCCOP(=O)(OCCCC)OCCCC`, the “Equilibrium Aqueous Acetic Acid Concentration” value (aqueous phase after contact with the solvent) was found to be 1.657 g/L. Further, where the note is “solvent vs aqueous phase”, the “Acetic Acid Distribution Coefficients” value was determined as 2.38.
